Where two headings read alike, the source gives them in different places.
Tests used:
Nrf2 = conditions: 24 h
[1] = system: AP1, P53, Nrf2, and NF-κB; conditions: four cell lines, 24 h, with or without 1% rat liver S9; maximum 12 points
P53 = conditions: regardless of metabolic activation (S9- and S9+), 24 h

4-Demethylepipodophyllotoxin
GFP expression, Nrf2 cell line (Nrf2; under metabolic activation (S9+, 1% rat liver S9)): specifically activated | GFP expression, Nrf2 cell line (Nrf2; without metabolic activation (S9-)): no change | sum of activity scores compared between metabolic activation and non-metabolic conditions [1]: consistently active regardless of metabolic activation | GFP expression, P53 cell line (P53): increased

Reference: PMC10881971, “Hepa-ToxMOA: a pathway-screening method for evaluating cellular stress and hepatic metabolic-dependent toxicity of natural products” (Scientific Reports, 2024)
